Results: BindingDB's records for doi:10.7270/Q2N29VCW (University of Pittsburgh, 2009)

Target: T1, Phosphotransferase (Trypanosoma brucei brucei (strain 927/4 GUTat10.1), UniProt Q38C41)
T1 sequence (Q38C41 whole entry): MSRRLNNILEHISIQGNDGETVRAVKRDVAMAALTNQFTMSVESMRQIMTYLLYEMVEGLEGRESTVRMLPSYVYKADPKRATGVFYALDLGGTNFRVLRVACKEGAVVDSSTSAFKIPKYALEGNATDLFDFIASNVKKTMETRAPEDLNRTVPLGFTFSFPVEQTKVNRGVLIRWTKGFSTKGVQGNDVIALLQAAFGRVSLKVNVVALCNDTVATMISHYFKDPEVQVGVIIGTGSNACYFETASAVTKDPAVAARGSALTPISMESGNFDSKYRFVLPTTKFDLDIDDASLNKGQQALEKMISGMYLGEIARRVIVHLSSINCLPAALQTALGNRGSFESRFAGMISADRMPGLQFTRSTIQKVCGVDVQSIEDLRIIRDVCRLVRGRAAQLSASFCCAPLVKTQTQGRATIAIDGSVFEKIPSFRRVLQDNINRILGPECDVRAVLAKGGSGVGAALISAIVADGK

## O=c1c2ccccc2[se]n1-c1ccccc1 [2-Phenyl-benzo[d]isoselenazol-3-one]
  IC50: 0.901 µM
